Earlier results as cited in US20140271529A1, “ANTIFUNGAL COMPOSITIONS FOR THE TREATMENT OF SECONDARY SKIN AND NAIL INFECTIONS” (ALC Therapeutics, LLC, priority 2013, published 2014).

Conditions: human, in vivo

Substance: cetuximab
- acute paronychia, patients affected: up to 41%
